{
  "sequences": {"note": "Amino acid sequences for entries named in this document (tags omitted). A change or cut given only in a name is not applied to a line headed by its entry.", "UniProt O15151": "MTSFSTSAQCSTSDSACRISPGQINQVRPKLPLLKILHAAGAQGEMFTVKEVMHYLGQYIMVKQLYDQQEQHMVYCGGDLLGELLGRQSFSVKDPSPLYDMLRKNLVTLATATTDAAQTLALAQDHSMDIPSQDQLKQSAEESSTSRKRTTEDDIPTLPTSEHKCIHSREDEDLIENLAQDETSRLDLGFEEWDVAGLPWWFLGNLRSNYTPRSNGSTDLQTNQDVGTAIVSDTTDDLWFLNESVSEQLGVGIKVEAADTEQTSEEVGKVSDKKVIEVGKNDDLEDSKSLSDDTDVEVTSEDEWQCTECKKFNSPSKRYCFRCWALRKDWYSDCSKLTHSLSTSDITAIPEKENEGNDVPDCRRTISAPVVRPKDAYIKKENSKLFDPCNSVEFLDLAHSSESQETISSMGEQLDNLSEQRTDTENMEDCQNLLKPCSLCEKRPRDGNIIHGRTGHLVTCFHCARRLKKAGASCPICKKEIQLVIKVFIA", "UniProt Q00987, whole entry, looked up": "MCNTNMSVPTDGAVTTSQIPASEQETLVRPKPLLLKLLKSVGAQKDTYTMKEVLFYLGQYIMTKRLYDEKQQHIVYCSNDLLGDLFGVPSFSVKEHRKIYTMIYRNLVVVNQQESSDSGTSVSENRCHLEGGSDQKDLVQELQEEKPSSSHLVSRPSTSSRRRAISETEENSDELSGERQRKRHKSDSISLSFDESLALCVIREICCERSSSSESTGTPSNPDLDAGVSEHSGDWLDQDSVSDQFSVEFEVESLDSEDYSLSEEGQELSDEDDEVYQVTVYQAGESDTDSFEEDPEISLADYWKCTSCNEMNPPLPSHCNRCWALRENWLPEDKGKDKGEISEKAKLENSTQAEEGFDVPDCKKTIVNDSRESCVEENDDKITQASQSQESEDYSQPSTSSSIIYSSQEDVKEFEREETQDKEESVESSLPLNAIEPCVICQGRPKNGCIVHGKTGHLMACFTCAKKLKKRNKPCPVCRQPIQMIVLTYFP"},
  "source": "PubChem BioAssay AID485346",
  "about": "(Sanford-Burnham Center for Chemical Genomics, 2010)",
  "note": "The list shows a part of the results, in another mix than the full data. Activity calls are given as the source filed them.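 The calls were made as follows: active = inhibition of at least 50% at 8 µM in the primary screen; inactive = the rest.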",
  "data": [
    {"biological_target": "Protein Mdm4 (Homo sapiens) + E3 ubiquitin-protein ligase Mdm2 (Homo sapiens) (UniProt O15151+Q00987)", "assay": "disruptors of Mdm2/MdmX RING complex – cell-based, luminescence, split luciferase, SaOS-2, uHTS, primary screen (AID 485346)", "details": "SaOS-2 split-luciferase Mdm2/MdmX complementation, at 8 µM, hits give high values", "values": [
      {"smiles": "O=[N+]([O-])c1ncn(CCn2cnc([N+](=O)[O-])n2)n1", "inhibition": "inactive: -29.4%"},
      {"smiles": "C[C@H]1OP(=O)(Oc2ccccc2)[C@H](O)[C@H](O)[C@H]1N=[N+]=[N-]", "note": "(stereo not given in full)", "inhibition": "inactive: 13.2%"},
      {"smiles": "O=P(Nc1nc2ccccc2s1)(c1ccccc1)c1ccccc1", "inhibition": "inactive: -0.597%"},
      {"smiles": "CN(C)C1(CNC(=O)c2ccc(Cl)c(S(N)(=O)=O)c2)CCCCC1", "inhibition": "inactive: -16.2%"},
      {"smiles": "O=P(Nc1ccccn1)(c1ccc(Br)cc1)c1ccc(Br)cc1", "inhibition": "inactive: -12.5%"},
      {"smiles": "c1nnnn1CCn1cnnn1", "inhibition": "inactive: 6.05%"},
      {"smiles": "O=P(Nc1nccs1)(c1ccccc1)c1ccccc1", "inhibition": "inactive: -5.78%"},
      {"smiles": "CC(C)C(=O)NC(Sc1ccccc1)C(Cl)(Cl)Cl", "note": "(stereo not given)", "inhibition": "inactive: 10.3%"},
      {"smiles": "CC1CCN(C(=O)Oc2c(Cl)cc(Cl)c3cccnc23)CC1", "inhibition": "inactive: 18.1%"},
      {"smiles": "CN(C)C(=O)OCCc1n(C)cc[n+]1C", "inhibition": "inactive: 12.5%"},
      {"smiles": "CC(C)=N/N=C(\\N)N[N+](=O)[O-]", "inhibition": "inactive: 5.2%"},
      {"smiles": "CCN(/C(=N/P(=O)(N1CCOCC1)N1CCOCC1)N1CCOCC1)c1ccc(OC)cc1", "inhibition": "inactive: 15.9%"},
      {"smiles": "C[N+]1=C2C=CC=CC=C2SC12C([N+](=O)[O-])=CC([N+](=O)[O-])=C[C-]2[N+](=O)[O-]", "note": "(stereo not given)", "inhibition": "active: 97.6%"},
      {"smiles": "Nc1ccc([As](=O)(O)c2ccc(N)cc2)cc1", "inhibition": "inactive: 7.93%"},
      {"smiles": "O=[N+]([O-])c1cc([N+](=O)[O-])c(CCNc2ccccc2)c([N+](=O)[O-])c1", "inhibition": "inactive: 33.7%"},
      {"smiles": "CCc1nc2c(n1)c1c(non1O)c1c2no[n+]1[O-]", "inhibition": "inactive: 38%"},
      {"smiles": "Cc1ccc(NP(=O)(Oc2ccccc2)Oc2ccccc2)nc1", "inhibition": "inactive: -7.23%"},
      {"smiles": "CC(=O)N1C2C3N(C(C)=O)C1C1N(C(C)=O)C(C(N1C(C)=O)N3C(C)=O)N2C(C)=O", "inhibition": "inactive: -19.7%"},
      {"smiles": "O=[N+]([O-])c1cccc2n[nH]nc12", "inhibition": "inactive: 22.6%"},
      {"smiles": "COc1ccc(C2=NCC(CBr)S2)cc1", "note": "(stereo not given)", "inhibition": "inactive: -5.96%"},
      {"smiles": "O=[N+]([O-])c1cccc(NC2=NCC(CBr)S2)c1", "note": "(stereo not given)", "inhibition": "inactive: 25%"},
      {"smiles": "O=[N+]([O-])c1ncn(CCn2ncnc2[N+](=O)[O-])n1", "inhibition": "inactive: 12.7%"},
      {"smiles": "CC(C)(C)C(=O)NC(Sc1ccncn1)C(Cl)(Cl)Cl", "note": "(stereo not given)", "inhibition": "inactive: 11.1%"},
      {"smiles": "O=C(Nc1cc([As](=O)(O)O)ccc1O)c1ccccc1", "inhibition": "inactive: 13.8%"},
      {"smiles": "CCN(N=Nc1nonc1N)c1nonc1N", "inhibition": "inactive: -14.9%"},
      {"smiles": "O=[N+]([O-])c1cc([N+](=O)[O-])c(CCN2CCOCC2)c([N+](=O)[O-])c1", "inhibition": "inactive: 8.17%"},
      {"smiles": "CN(C(=O)Cc1ccc(Cl)c(Cl)c1)[C@H]1CCCC[C@@H]1N1CCCC1", "inhibition": "inactive: -5.6%"},
      {"smiles": "Cc1ccc(NP(=O)(Oc2ccccc2F)Oc2ccccc2F)nc1", "inhibition": "inactive: -11.3%"},
      {"smiles": "Cc1cc(SC(NC(=O)c2ccc(F)cc2)C(Cl)(Cl)Cl)ncn1", "note": "(stereo not given)", "inhibition": "inactive: -0.607%"},
      {"smiles": "CCOP(=O)(Nc1ccccc1)OCC", "inhibition": "inactive: -11.7%"},
      {"smiles": "O=P(Nc1nc2ccc(Cl)cc2s1)(c1ccccc1)c1ccccc1", "inhibition": "inactive: 17.2%"},
      {"smiles": "CC(=O)Nc1ccc([As](=O)(O)O)cc1", "inhibition": "inactive: -28.4%"},
      {"smiles": "O=C(O)c1ccccc1[As](=O)(O)O", "inhibition": "inactive: 14.1%"},
      {"smiles": "O=C(NC(Sc1ccncn1)C(Cl)(Cl)Cl)c1ccccc1", "note": "(stereo not given)", "inhibition": "inactive: 24.6%"},
      {"smiles": "Cc1c2non([O-])c-2c(C)[n+](=O)[n+]1[O-]", "inhibition": "inactive: 14.2%"},
      {"smiles": "Oc1ccccc1CNc1ccccn1", "inhibition": "inactive: 13.6%"},
      {"smiles": "Nc1cc(N)c2nonc2c1[N+](=O)[O-]", "inhibition": "inactive: 19.9%"},
      {"smiles": "CC(C)CC(=O)NC(Sc1ccc(Cl)cc1)C(Cl)(Cl)Cl", "note": "(stereo not given)", "inhibition": "inactive: -23.1%"},
      {"smiles": "CN1CCCC(OC(=O)C(c2ccccc2)c2ccccc2)C1", "note": "(stereo not given)", "inhibition": "inactive: -10.9%"},
      {"smiles": "Clc1ccc(Cl)c(NC2=NCC(CBr)S2)c1", "note": "(stereo not given)", "inhibition": "inactive: -1.25%"},
      {"smiles": "Cc1ccc(OP(=O)(Nc2nccs2)Oc2ccc(C)cc2)cc1", "inhibition": "inactive: 11.8%"},
      {"smiles": "COc1ccccc1OP(=O)(Nc1ccc(C)cn1)Oc1ccccc1OC", "inhibition": "inactive: 27.1%"},
      {"smiles": "Cc1ccc(N/C(=N/P(=O)(N2CCOCC2)N2CCOCC2)N2CCOCC2)cc1", "inhibition": "inactive: 20.5%"},
      {"smiles": "CN(C(=O)Cc1ccc(Cl)c(Cl)c1)[C@H]1CCCC[C@H]1N1CCCC1", "inhibition": "inactive: 17.1%"},
      {"smiles": "NC(=O)c1cc([N+](=O)[O-])cc([N+](=O)[O-])c1N", "inhibition": "inactive: 13.7%"}
    ]}
  ]
}
